For the assay, the target named is T1, purified recombinant human SYK360-635 (Homo sapiens, UniProt P43405).
T1 construct: truncated construct of Spleen Tyrosine Kinase aa 360-635; GST; made in house
The experiment in a line: SYK kinase assay: 33P γATP incorporation into biotinylated peptide substrate, IC50 determination. Conditions: SYK 0.5 nM, ATP 20 μM, DYE peptide 5 μM, 30° C. 15 min; read-out: IC50 h-syk-gst-sf9-c (inactive-dephosphorylated). The class given is biochemical. The protocol: Determination of IC50 of Spleen Tyrosine Kinase (SYK) Inhibition:
SYK kinase assay is a standard kinase assay adapted to a 96 well plate format. This assay is performed in 96-well format for IC50 determination with […] which represented 10 half log dilutions and a 40 μL reaction volume. The assay measures the incorporation of radiolabeled ^33P γATP into an N-terminally biotinylated peptide substrate, derived from naturally occurring phosphoacceptor consensus sequence (Biotin-11aa DY*E). Phosphorylated products were detected upon termination of reactions with EDTA and the addition of Streptavidin coated beads.
Assay plates: 96-well MultiScreen 0.65 um filter plates (Millipore Cat. No.: MADVNOB10)
BSA: Bovine Serum Albumin Fraction V, fatty acid free (Roche Diagnostics GmbH, Cat. No. 9100221) diluted to a final concentration of 0.1%
Assay Dilution Buffer (ADB): 50 mM HEPES, 0.1 mM EGTA, 0.1 mM Na Vanadate, 0.1 mM β-glycerophosphate, 10 mM MgCl2, 1 mM DTT, 0.1% BSA, pH 7.5
Bead wash buffer: 10 g/L PBS (Phosphate buffered saline) with 2M NaCl+1% phosphoric acid.
DMSO and the mixture was incubated for 10 min at RT.
The kinase reaction was initiated by the addition of 10 μL 4× substrate cocktail containing the DYE peptide substrate [0 or 5 μM], ATP [20 μM] and ^33PγATP [2 μCi/r×n]. After incubation at 30° C. for 15 min, the reaction was terminated by the transfer of 25 μL of the reaction sample to a 96 well 0.65 μm Millipore MADVNOB membrane/plate containing 200 μL 5 mM EDTA and 20% Streptavidine coated beads in PBS.
The unbound radionucleotides were washed under vacuum with 3×250 μL 2M NaCl; 2×250 μL 2M NaCl+1% phosphoric acid; 1×250 μL H2O. After the last wash membrane/plates were transferred to an adaptor plate, heat dried for 15 min at 60° C., and 50 μL scintillation cocktail was added to each well and 4 h later the amount of radioactivity was counted in a top counter.
Take `COc1ccc(Nc2nc(N3CCCC(C(=O)NCCc4ccncc4)C3)nc3scnc23)cc1OC` (stereo not drawn) [Compound I-25, 1-(7-(3,4-Dimethoxyphenylamino)thiazolo[5,4-d]pyrimidin-5-yl)-N-(2-(pyridin-4-yl)ethyl)piperidine-3-carboxamide]: the half-inhibitory concentration (IC50) is 19900 nM.
Consider `COc1ccc(Nc2nc(N3CCCC(C(=O)Nc4ccc(C(=O)O)nc4)C3)nc3scnc23)cc1OC` (stereo not drawn) [Compound I-42, 5-(1-(7-(3,4-Dimethoxyphenylamino)thiazolo[5,4-d]pyrimidin-5-yl)piperidine-3-carboxamido)picolinic acid], for which the IC50 turned out to be 65 nM.
On to `COc1ccc(Nc2nc(-c3cccc(CO)c3)nc3scnc23)cc1OC` [Compound I-67, {3-[7-(3,4-Dimethoxy-phenylamino)-thiazolo[5,4-d]pyrimidin-5-yl]-phenyl}-methanol], for which the IC50 worked out at 79 nM.

What is called IC50 is the point on the concentration scale where inhibition reaches its midpoint.

The values are drawn from patent publication US8921383B2, “Thiazolopyrimidine compounds” (Hoffmann-La Roche Inc., priority 2011, dated 2014).
